Laboratory results: ChEMBL document CHEMBL1131001, “Syntheses and anticholinesterase activities of (3aS)-N1, N8-bisnorphenserine, (3aS)-N1,N8-bisnorphysostigmine, their antipodal isomers, and other potential metabolites of phenserine” (J Med Chem, 1998)

Chains of the proteins cited; added tags and fusions are not shown. Lines headed by an entry give the natural chain unless they say otherwise; changes in a name come on top.
UniProt P22303: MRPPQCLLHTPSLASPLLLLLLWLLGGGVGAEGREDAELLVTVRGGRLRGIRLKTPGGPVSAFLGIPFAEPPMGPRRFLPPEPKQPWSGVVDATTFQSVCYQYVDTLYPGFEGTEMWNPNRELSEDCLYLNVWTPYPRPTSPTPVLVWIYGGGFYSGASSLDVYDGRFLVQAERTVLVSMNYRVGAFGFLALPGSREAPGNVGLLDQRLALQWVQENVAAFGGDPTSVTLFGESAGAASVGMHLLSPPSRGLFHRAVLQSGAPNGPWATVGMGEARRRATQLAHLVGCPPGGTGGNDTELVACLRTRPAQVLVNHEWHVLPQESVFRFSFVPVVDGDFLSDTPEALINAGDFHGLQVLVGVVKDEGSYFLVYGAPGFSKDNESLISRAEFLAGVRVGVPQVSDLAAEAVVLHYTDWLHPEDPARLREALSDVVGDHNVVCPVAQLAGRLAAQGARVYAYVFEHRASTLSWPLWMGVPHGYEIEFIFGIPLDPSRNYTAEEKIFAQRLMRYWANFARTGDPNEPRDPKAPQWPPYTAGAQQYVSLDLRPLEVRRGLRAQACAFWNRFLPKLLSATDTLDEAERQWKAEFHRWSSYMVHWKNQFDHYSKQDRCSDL
UniProt P06276, whole entry: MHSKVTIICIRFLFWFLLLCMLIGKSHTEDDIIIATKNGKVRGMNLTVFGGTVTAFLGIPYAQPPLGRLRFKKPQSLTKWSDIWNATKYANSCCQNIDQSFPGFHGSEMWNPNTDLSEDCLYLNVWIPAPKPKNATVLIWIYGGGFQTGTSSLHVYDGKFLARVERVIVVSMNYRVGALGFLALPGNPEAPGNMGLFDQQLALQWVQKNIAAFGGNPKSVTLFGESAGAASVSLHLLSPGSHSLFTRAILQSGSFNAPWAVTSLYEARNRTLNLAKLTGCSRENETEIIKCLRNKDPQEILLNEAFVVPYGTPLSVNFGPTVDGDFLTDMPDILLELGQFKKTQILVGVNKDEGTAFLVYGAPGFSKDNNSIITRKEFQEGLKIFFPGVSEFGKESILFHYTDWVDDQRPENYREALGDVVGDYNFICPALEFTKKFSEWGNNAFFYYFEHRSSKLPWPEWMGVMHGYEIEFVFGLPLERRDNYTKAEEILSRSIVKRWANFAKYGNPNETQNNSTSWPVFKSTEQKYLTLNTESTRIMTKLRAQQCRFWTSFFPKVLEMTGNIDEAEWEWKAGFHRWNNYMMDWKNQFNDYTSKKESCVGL

Legend:
Acetylcholinesterase = Acetylcholinesterase (Homo sapiens, UniProt P22303); test: Anticholinesterase activity against erythrocyte acetylcholinesterase (AChE) in humans.
Cholinesterase = Cholinesterase (Homo sapiens, UniProt P06276); test: Anticholinesterase activity against plasma Butyrylcholinesterase (BChE) in humans.; type: cell-free

Structure (SMILES)	IC50 (Acetylcholinesterase) [nM]	IC50 (Cholinesterase) [nM]
C[C@@]12CCNC1Nc1ccc(OC(=O)Nc3ccccc3)cc12 (some centres not stated)	22.1	–
CNC(=O)Oc1ccc2c(c1)[C@]1(C)CCNC1N2C (some centres not stated)	–	2
